Here are results for 7 compounds from ChEMBL document CHEMBL2218924, “A broad activity screen in support of a chemogenomic map for kinase signalling research and drug discovery” (Biochem J, 2013).

Chains of the proteins cited; added tags and fusions are not shown. Lines headed by an entry give the natural chain unless they say otherwise; changes in a name come on top.
UniProt Q9H4B4: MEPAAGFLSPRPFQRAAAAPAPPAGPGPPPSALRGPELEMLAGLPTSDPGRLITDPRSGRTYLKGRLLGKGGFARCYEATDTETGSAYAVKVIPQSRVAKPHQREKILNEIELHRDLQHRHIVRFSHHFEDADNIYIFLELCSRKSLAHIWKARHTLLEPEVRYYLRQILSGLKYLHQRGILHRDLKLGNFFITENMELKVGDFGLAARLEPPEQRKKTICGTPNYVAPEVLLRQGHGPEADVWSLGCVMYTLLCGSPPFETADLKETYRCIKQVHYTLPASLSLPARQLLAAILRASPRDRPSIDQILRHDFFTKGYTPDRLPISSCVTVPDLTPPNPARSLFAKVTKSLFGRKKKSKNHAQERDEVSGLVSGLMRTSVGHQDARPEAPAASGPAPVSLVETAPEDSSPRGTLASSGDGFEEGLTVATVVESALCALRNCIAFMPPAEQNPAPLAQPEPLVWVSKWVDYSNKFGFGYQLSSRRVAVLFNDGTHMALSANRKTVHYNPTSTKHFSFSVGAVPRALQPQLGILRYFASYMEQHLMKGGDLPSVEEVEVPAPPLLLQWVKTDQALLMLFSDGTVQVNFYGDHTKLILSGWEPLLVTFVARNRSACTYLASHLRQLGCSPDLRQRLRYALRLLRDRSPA
UniProt Q96RG2: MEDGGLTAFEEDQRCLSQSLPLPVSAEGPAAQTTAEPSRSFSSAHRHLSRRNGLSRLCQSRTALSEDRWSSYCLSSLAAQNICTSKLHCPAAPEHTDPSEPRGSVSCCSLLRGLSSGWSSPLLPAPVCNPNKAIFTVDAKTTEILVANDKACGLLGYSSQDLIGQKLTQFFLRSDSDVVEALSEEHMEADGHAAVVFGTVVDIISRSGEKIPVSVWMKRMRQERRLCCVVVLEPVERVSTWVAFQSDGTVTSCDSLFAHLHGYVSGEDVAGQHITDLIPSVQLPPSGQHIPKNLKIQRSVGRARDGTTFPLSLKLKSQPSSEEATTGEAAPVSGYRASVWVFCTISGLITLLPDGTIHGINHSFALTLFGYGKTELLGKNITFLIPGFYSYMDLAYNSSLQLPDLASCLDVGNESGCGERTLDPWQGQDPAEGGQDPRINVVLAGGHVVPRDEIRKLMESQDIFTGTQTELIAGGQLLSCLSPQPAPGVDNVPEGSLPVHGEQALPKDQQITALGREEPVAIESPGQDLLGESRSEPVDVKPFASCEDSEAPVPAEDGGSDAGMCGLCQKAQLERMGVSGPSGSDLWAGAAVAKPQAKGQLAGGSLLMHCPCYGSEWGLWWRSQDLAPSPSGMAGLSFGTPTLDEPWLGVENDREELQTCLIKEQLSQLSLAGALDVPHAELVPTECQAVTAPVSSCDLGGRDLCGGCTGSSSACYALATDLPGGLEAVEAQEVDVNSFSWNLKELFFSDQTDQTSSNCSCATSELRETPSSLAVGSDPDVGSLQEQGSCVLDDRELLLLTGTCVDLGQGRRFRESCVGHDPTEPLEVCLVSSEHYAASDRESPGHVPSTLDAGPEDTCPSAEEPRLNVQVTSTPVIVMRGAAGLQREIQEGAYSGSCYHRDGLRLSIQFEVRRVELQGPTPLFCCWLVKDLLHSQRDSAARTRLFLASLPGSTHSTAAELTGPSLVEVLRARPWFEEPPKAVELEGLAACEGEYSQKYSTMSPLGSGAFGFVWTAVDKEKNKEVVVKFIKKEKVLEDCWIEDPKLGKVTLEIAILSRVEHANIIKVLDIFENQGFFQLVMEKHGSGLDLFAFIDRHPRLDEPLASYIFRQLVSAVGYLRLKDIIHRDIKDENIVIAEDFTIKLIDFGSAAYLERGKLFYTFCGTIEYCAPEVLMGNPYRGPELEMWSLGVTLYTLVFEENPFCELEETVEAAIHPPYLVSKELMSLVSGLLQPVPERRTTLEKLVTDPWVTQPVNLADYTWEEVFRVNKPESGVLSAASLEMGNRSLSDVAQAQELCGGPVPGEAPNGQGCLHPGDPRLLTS
UniProt Q00535, whole entry, looked up: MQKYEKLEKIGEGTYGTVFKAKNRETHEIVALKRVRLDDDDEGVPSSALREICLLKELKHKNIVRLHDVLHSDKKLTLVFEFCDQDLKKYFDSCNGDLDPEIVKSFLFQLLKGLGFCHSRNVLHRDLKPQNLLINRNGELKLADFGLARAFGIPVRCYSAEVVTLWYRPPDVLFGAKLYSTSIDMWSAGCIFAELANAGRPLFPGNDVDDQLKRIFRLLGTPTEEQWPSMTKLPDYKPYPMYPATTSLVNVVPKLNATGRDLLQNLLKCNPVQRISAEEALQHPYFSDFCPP
UniProt Q15078: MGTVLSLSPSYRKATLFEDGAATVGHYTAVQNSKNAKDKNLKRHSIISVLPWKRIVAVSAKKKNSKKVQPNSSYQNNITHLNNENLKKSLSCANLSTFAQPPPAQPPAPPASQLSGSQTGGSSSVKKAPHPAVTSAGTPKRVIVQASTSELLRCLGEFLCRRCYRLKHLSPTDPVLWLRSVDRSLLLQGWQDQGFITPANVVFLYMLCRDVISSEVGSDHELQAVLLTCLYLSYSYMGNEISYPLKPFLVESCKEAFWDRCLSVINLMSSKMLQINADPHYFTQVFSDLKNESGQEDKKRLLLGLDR
UniProt Q8N4C8: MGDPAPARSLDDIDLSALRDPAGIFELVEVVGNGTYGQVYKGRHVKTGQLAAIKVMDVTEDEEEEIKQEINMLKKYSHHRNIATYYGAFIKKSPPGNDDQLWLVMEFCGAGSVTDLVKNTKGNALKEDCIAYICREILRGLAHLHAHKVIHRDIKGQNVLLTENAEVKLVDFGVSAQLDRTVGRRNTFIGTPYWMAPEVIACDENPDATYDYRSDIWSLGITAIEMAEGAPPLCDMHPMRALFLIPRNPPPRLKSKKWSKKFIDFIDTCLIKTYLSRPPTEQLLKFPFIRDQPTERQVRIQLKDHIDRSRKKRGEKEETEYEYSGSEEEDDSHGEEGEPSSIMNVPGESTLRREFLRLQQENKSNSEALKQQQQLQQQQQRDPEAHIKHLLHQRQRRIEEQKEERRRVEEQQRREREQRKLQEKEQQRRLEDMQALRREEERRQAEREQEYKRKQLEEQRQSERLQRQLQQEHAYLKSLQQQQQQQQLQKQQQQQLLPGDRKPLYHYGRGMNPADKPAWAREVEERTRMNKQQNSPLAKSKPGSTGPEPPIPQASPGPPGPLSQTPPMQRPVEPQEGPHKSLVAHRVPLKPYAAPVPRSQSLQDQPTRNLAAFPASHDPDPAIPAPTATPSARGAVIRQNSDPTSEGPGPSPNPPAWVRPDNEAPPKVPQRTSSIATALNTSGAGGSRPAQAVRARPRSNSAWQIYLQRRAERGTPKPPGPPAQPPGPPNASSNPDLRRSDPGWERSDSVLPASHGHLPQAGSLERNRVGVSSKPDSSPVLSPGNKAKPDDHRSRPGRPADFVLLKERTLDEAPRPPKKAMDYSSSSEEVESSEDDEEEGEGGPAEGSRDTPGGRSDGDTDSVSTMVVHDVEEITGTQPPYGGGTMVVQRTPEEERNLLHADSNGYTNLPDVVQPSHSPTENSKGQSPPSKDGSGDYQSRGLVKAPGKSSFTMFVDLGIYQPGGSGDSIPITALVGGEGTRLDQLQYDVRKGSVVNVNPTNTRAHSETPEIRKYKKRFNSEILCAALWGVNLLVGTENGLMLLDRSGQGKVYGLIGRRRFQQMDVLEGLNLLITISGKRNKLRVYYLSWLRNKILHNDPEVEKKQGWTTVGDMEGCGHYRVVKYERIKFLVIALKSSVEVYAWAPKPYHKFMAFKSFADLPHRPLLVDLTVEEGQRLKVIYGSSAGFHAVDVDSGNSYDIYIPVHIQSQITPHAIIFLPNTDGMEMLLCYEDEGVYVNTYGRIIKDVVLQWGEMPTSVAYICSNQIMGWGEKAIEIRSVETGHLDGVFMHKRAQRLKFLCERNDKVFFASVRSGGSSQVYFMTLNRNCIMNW
UniProt P09619, whole entry: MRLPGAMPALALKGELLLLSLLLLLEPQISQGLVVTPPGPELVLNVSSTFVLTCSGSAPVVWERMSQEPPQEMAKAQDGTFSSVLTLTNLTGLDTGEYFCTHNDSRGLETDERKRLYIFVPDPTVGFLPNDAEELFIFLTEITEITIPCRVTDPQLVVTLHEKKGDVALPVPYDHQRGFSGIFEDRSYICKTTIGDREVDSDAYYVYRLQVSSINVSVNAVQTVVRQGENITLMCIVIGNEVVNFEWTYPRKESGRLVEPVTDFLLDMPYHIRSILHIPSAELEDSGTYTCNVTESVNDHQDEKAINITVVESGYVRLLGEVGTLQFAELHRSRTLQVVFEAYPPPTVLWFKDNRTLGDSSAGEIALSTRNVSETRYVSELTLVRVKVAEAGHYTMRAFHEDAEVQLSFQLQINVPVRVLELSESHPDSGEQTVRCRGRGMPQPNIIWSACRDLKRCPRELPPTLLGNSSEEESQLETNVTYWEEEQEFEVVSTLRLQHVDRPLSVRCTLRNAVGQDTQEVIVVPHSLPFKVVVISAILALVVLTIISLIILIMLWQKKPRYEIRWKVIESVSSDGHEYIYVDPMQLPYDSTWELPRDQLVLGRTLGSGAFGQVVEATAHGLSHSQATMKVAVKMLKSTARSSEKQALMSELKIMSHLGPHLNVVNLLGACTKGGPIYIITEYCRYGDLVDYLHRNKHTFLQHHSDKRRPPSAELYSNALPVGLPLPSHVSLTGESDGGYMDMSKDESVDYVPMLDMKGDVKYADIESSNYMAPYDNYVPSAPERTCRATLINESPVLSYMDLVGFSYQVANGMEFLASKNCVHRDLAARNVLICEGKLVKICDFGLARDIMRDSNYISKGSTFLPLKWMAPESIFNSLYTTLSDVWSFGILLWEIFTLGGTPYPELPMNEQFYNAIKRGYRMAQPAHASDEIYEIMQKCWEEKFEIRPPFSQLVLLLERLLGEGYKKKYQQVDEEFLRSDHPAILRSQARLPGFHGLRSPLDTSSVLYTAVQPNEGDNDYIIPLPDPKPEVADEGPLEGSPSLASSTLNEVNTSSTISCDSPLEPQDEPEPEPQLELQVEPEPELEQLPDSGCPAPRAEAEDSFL
UniProt P00519, whole entry: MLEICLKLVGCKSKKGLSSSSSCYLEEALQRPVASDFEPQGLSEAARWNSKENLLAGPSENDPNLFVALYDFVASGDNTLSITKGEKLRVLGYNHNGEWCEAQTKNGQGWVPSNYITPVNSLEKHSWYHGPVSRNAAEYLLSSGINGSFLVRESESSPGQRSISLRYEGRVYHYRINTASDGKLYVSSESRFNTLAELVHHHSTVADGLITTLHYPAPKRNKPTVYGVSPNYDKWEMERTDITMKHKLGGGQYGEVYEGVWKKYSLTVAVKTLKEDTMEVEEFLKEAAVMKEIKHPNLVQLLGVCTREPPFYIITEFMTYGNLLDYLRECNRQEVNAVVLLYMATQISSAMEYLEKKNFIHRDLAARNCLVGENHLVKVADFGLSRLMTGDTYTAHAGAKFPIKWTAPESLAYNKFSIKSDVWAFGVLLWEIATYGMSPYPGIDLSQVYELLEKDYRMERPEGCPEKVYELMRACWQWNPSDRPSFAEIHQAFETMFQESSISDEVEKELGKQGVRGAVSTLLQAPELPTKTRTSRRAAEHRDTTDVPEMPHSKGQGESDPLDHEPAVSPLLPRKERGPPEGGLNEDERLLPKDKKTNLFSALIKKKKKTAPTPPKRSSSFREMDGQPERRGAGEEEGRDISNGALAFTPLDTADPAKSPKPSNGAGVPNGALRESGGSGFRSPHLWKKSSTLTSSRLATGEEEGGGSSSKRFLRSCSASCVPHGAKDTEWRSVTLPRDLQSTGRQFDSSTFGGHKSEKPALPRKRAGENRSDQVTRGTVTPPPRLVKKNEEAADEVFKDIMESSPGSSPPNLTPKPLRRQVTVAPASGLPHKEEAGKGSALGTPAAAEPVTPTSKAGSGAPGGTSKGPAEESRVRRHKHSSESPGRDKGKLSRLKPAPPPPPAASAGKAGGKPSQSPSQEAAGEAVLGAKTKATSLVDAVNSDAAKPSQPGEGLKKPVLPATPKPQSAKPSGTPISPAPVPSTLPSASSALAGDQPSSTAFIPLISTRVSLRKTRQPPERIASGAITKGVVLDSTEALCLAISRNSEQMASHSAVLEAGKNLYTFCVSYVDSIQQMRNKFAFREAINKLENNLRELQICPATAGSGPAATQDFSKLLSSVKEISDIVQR
UniProt Q9UEE5: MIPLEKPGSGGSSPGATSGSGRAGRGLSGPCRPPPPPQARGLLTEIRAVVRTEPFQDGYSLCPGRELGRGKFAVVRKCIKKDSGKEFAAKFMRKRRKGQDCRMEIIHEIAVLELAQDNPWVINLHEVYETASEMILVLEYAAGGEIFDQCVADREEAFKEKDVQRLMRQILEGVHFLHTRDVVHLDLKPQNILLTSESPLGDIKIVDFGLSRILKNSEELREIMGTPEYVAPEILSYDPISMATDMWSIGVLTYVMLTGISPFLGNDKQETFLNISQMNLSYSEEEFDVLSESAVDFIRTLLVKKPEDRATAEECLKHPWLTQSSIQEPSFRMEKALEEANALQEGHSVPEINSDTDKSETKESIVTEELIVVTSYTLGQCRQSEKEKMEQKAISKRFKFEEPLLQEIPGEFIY

For part of these data: Most of the strong results are listed elsewhere, so they are rarer here than in the full data. This is a selection; strong and weak results do not stand in their true shares.

Test [1] addresses T1, Ephrin type-A receptor 8 (Homo sapiens) (UniProt P29322).
T1 sequence (whole entry): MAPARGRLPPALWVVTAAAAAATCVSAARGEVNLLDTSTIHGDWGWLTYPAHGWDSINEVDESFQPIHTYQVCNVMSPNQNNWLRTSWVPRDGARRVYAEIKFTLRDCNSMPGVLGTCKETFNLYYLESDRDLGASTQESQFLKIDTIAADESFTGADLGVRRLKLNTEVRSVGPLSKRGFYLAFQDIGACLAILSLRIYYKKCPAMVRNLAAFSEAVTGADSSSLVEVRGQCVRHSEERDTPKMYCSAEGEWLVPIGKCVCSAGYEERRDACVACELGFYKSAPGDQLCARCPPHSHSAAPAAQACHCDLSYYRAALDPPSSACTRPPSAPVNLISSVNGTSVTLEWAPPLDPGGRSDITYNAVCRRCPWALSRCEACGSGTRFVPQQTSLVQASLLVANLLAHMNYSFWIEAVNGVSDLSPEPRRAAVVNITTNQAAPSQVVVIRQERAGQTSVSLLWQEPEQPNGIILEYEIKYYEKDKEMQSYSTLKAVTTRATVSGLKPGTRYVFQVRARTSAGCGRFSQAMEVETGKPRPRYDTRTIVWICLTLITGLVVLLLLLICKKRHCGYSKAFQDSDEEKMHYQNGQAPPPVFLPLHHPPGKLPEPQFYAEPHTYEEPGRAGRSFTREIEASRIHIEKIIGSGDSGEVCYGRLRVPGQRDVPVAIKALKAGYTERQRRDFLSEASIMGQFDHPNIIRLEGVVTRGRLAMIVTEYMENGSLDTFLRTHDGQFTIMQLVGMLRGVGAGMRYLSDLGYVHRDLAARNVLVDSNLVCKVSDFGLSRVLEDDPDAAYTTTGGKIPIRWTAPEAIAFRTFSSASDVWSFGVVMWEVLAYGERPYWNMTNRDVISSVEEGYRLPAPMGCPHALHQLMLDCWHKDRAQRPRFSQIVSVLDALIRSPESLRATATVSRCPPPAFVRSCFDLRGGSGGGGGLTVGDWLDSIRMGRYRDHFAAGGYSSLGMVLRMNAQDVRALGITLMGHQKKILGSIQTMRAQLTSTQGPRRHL
To be noted: at 10 µM.

In test [2] the target is T2, Serine/threonine-protein kinase NLK (Homo sapiens) (UniProt Q9UBE8).
T2 sequence (whole entry): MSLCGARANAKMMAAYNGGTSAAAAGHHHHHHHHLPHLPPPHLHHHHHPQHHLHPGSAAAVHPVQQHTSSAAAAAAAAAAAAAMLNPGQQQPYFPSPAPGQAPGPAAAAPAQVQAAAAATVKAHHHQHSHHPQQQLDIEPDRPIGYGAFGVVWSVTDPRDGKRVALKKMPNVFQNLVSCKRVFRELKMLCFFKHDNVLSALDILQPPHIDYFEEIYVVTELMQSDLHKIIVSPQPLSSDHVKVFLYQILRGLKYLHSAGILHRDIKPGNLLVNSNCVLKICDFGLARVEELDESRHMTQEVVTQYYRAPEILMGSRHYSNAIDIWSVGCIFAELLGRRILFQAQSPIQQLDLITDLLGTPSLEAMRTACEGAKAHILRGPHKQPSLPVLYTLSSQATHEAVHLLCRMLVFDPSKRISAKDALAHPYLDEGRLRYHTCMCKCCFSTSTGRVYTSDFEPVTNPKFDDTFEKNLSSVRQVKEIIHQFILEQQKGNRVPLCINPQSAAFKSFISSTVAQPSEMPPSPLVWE
To be noted: at 1 µM.

Test [3] deals with T3, Discoidin domain-containing receptor 2 (Homo sapiens) (UniProt Q16832).
T3 sequence (whole entry): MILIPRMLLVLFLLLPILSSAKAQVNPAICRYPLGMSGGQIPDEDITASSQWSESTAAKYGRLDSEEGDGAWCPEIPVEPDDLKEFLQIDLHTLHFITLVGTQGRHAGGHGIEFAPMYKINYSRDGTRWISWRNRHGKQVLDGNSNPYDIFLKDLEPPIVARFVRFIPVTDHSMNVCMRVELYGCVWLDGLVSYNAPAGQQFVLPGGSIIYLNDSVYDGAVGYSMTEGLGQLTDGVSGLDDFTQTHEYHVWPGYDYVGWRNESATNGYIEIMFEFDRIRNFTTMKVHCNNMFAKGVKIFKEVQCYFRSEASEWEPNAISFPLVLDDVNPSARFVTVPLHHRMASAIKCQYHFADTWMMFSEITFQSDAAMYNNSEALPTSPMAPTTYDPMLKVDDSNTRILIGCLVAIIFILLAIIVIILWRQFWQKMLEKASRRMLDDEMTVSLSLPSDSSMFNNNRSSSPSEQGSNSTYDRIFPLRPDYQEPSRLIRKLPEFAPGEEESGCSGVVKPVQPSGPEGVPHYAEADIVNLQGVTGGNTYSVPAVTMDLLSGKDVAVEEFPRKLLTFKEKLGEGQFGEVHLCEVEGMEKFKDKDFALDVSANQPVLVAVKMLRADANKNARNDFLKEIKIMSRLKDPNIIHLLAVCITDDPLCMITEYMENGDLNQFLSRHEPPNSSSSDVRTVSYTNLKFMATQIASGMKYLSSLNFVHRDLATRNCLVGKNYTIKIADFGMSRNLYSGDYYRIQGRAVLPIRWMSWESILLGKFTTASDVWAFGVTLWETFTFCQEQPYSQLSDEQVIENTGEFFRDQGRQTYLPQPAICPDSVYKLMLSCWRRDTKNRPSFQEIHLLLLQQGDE
To be noted: at 10 µM.

In test [4] the target is Glycogen synthase kinase-3 alpha (Homo sapiens) (UniProt P49840). To be noted: at 1 µM.
The target in test [5] is Serine/threonine-protein kinase PLK3 (Homo sapiens) (UniProt Q9H4B4). Conditions: at 10 µM.
In test [6] the target is PAS domain-containing serine/threonine-protein kinase (Homo sapiens) (UniProt Q96RG2). To be noted: at 1 µM.
Test [7] deals with Calcium/calmodulin-dependent protein kinase type 1 (Homo sapiens) (UniProt Q14012). To be noted: at 1 µM.
The target of test [8] is Tyrosine-protein kinase Yes (Homo sapiens) (UniProt P07947). To be noted: at 1 µM.
The target in test [9] is Cyclin-dependent kinase 5/CDK5 activator 1 (Homo sapiens) (UniProt Q00535+Q15078). To be noted: at 1 µM.
The target in test [10] is Misshapen-like kinase 1 (Homo sapiens) (UniProt Q8N4C8). Conditions: at 1 µM.
In test [11] the target is Platelet-derived growth factor receptor beta (Homo sapiens) (UniProt P09619). Conditions: at 1 µM.
Test [12] addresses Tyrosine-protein kinase BTK (Homo sapiens) (UniProt Q06187). Conditions: at 1 µM.
The target of test [13] is Protein kinase C zeta type (Homo sapiens) (UniProt Q05513). To be noted: at 10 µM.
Test [14] addresses Serine/threonine-protein kinase PLK2 (Homo sapiens) (UniProt Q9NYY3). To be noted: at 1 µM.
Test [15] has as its target cAMP-dependent protein kinase catalytic subunit alpha (Homo sapiens) (UniProt P17612). To be noted: at 10 µM.
Test [16] concerns the target Tyrosine-protein kinase ABL1 (Homo sapiens) (UniProt P00519). Conditions: at 10 µM.
Test [17] concerns the target T4, Activin receptor type-1B (Homo sapiens) (UniProt P36896).
T4 sequence (whole entry): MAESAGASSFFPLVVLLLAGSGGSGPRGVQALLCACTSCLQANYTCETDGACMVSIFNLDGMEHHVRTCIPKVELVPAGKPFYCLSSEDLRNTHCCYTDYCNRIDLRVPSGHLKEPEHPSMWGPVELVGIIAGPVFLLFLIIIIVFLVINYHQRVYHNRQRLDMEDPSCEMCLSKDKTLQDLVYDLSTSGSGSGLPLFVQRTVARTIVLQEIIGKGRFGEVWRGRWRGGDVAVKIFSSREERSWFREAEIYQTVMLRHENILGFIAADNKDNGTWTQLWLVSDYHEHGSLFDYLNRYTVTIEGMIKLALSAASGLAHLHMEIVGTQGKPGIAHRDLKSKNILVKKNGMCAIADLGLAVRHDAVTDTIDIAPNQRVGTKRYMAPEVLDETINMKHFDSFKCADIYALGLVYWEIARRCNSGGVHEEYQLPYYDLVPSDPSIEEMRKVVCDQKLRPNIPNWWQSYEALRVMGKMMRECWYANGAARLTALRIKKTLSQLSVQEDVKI
Conditions: at 1 µM.

The target of test [18] is Serine/threonine-protein kinase 17A (Homo sapiens) (UniProt Q9UEE5). Conditions: at 1 µM.
Test [19] addresses Ephrin type-B receptor 3 (Homo sapiens) (UniProt P54753). To be noted: at 10 µM.
The target of test [20] is Tyrosine-protein kinase Fer (Homo sapiens) (UniProt P16591). Conditions: at 1 µM.
Test [21] has as its target Homeodomain-interacting protein kinase 3 (Homo sapiens) (UniProt Q9H422). To be noted: at 1 µM.

Turning to `CC[n+]1c(/C=C/N(C)c2ccccc2)n(-c2ccccc2)c2ccc(-c3nc4ccccc4s3)cc21`, the residual activity in test [1] came to 108%; in test [2], 115%.

Regarding `COc1cccc(-c2cc(=O)c3ccccc3o2)c1N`, the residual activity in test [3] came to 99%; in test [4] it was 114%; in test [5], 102%; in test [6], 107%.

For `COc1cc2ncc(-c3ccccc3)nc2cc1OC`, the residual activity in test [7] and in test [8] was 112% throughout.

Consider `O=C(O)c1ccc2c3c1cccc3c(=O)n1c3ccccc3nc21`, for which the residual activity in test [9] was determined as 108%; in test [10] it was 90%; in test [11] it was 111%.

As for `COc1ccc(S(=O)(=O)N(CCO)c2ccccc2CN(C)C/C=C/c2ccc(Cl)cc2)cc1`, the residual activity was 89% in test [12], 105% in test [13], 110% in test [14] and 118% in [15].

Consider `Oc1n[nH]c2nnc(-c3c(-c4ccccc4)nn4ccccc34)cc12`, for which the residual activity in [16] was 61%; in test [17] it was 110%.

For `CC(C)n1cnc2/c(=N/c3cccc(Cl)c3)nc(NCCO)[nH]c21`, the residual activity in test [18] is 106%; in test [19], 101%; in test [20], 94%; in [21], 97%.
